How the values were obtained:
Zea mays = assay: Pre-emergence test, crop damage (greenhouse, sprayed immediately after sowing); settings: Dosage 240 g a.i./ha, after 4 weeks in greenhouse, fresh weight control rate
Triticum aestivum = assay: as above; settings: Dosage 240 g a.i./ha, after 4 weeks in greenhouse, fresh weight control rate
[1] = tested on: Monocotyledonous and dicotyledonous weed; assay: Post-emergence test on weeds (greenhouse, spray tower); settings: Dosage 240 g a.i./ha, after 3 weeks of cultivation in a greenhouse, fresh weight control rate
[2] = tested on: Monocotyledonous and dicotyledonous weed; assay: Pre-emergence test on weeds (greenhouse, sprayed immediately after sowing); settings: Dosage 240 g a.i./ha, after 4 weeks in greenhouse, fresh weight control rate

Structure (SMILES)	activity level of plant damage (growth control rate), Zea mays (Zea mays)	activity level of plant damage (growth control rate), Triticum aestivum (Triticum aestivum)	Avena fatua, activity level of plant damage (growth control rate) [1]	Digitaria sanguinalis, activity level of plant damage (growth control rate) [1]	activity level of plant damage (growth control rate), Digitaria sanguinalis [2]	activity level of plant damage (growth control rate), Lolium multiflorum [2]	activity level of plant damage (growth control rate), Setaria viridis [2]	activity level of plant damage (growth control rate), Descurainia sophia [2]
C=C(C)[C@@]1(C(=O)N[C@@H](C)C(=O)NOC)CC(c2cc(F)cc(OC)c2)=NO1	0	1 (Level 1: growth control rate less than 10%)	9	5 (Level 5: growth control rate greater than or equal to 50% and less than 70%)	9	5 (Level 5: growth control rate greater than or equal to 50% and less than 70%)	5 (Level 5: growth control rate greater than or equal to 50% and less than 70%)	
C=C(C)[C@]1(C(=O)N[C@@H](C)C(=O)N(C)OC)CC(c2cc(C)cc(Cl)c2)=NO1	2 (Level 2: growth control rate greater than or equal to 10% and less than 20%)	1 (Level 1: growth control rate less than 10%)			9	5 (Level 5: growth control rate greater than or equal to 50% and less than 70%)	8 (Level 8: growth control rate greater than or equal to 90% and less than 100%)	8 (Level 8: growth control rate greater than or equal to 90% and less than 100%)
CON(C)C(=O)[C@H](C)NC(=O)C1(C)CC(c2ccc(F)c(Cl)c2)=NO1 (some centres unmarked)	0	0			5 (Level 5: growth control rate greater than or equal to 50% and less than 70%)			
C=C[C@@]1(C(=O)N[C@@H](C)C(=O)NOCC)CC(c2cc(Br)cc(C(F)(F)F)c2)=NO1	1 (Level 1: growth control rate less than 10%)	1 (Level 1: growth control rate less than 10%)				6 (Level 6: growth control rate greater than or equal to 70% and less than 80%)		9
C=CC1(C(=O)N[C@@H](C)C(=O)N(C)OC)CC(c2cc(F)cc(N(C)OC)c2)=NO1 (some centres unmarked)	0	0						5 (Level 5: growth control rate greater than or equal to 50% and less than 70%)
CC[C@]1(C(=O)N[C@@H](C)C(=O)N(C)OC)CC(c2cc(F)cc(OC(F)(F)F)c2)=NO1	0	2 (Level 2: growth control rate greater than or equal to 10% and less than 20%)			9	9	9	
CC[C@]1(C(=O)N[C@@H](C)C(=O)N(C)OC)CC(c2cc(C)cc(Cl)c2)=NO1	1 (Level 1: growth control rate less than 10%)	0			9		5 (Level 5: growth control rate greater than or equal to 50% and less than 70%)	
C=C[C@]1(C(=O)N[C@@H](C)C(=O)N(C)OC)CC(c2cc(Cl)c(Cl)c(C(F)(F)F)c2)=NO1	0	0			7 (Level 7: growth control rate greater than or equal to 80% and less than 90%)			
C=C[C@]1(C(=O)N[C@H](C(=O)N(C)OC)C(C)(C)C)CC(c2cc(F)cc(F)c2)=NO1	0	0				5 (Level 5: growth control rate greater than or equal to 50% and less than 70%)		
C=C[C@@]1(C(=O)N[C@@H](CCSC)C(=O)N(C)OC)CC(c2cc(F)cc(F)c2)=NO1	0	1 (Level 1: growth control rate less than 10%)						5 (Level 5: growth control rate greater than or equal to 50% and less than 70%)
C=C(C)[C@@]1(C(=O)N[C@@H](C)C(=O)N(C)OC)CC(c2cc(C)cc(F)c2)=NO1	0	0						8 (Level 8: growth control rate greater than or equal to 90% and less than 100%)
C=C[C@]1(C(=O)N[C@H](C)C(=O)NOC)CC(c2cc(F)cc(C(F)(F)F)c2)=NO1	0	0						5 (Level 5: growth control rate greater than or equal to 50% and less than 70%)
C=C[C@@]1(C(=O)N[C@@H](CC2CC2)C(=O)N(C)OC)CC(c2cc(F)cc(F)c2)=NO1	0	0						5 (Level 5: growth control rate greater than or equal to 50% and less than 70%)
C=C[C@]1(C(=O)N[C@@H](C)C(=O)N(C)OCC(=C)C)CC(c2cc(F)cc(F)c2)=NO1	0	2 (Level 2: growth control rate greater than or equal to 10% and less than 20%)			8 (Level 8: growth control rate greater than or equal to 90% and less than 100%)		8 (Level 8: growth control rate greater than or equal to 90% and less than 100%)	
C=C(C)[C@]1(C(=O)N[C@@H](C)C(=O)N(C)OC)CC(c2cc(C(F)(F)F)cc(C(F)(F)F)c2)=NO1	2 (Level 2: growth control rate greater than or equal to 10% and less than 20%)	2 (Level 2: growth control rate greater than or equal to 10% and less than 20%)			9	9	9	

From patent EP4837910A1, “ISOXAZOLINE COMPOUND AND PREPARATION METHOD THEREFOR, HERBICIDAL COMPOSITION, AND USE” (dated 2026)
